Only a part is listed here, and it is no random draw. Active and inactive are the calls of the source. No stated cut-off is given here; in the data, active means inhibition above about 40%; inactive means the rest.
target: Cyclic GMP-AMP synthase (Mus musculus) (UniProt Q8C6L5); assay: cyclic GMP-AMP synthase inhibitors, mouse, primary biochemical chemiluminescence (AID 1259399); settings: recombinant cGAS, Kinase-Glo ATP depletion luminescence; at 12.5 µM; stronger effect = higher value;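 further: 0% = negative control wells and 100% = reference inhibitor with no enzyme activity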

Amino acid sequences for entries named in this document (tags omitted).
UniProt Q8C6L5, whole entry: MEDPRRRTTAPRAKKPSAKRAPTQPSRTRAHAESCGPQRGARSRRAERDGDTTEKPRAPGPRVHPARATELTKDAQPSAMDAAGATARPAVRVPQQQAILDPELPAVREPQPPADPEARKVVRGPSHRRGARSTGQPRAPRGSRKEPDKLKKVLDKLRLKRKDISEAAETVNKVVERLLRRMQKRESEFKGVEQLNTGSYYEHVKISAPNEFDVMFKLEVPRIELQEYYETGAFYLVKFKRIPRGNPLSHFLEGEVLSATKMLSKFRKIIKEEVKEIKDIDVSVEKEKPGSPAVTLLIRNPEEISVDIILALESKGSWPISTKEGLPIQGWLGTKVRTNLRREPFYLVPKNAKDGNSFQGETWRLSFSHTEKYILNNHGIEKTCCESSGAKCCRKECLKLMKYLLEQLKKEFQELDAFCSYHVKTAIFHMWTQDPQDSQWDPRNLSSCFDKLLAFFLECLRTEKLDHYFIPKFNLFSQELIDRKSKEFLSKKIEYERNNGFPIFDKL

SMILES	inhibition
CP(=O)(Nc1ccc(Br)cc1)Oc1ccccc1 (stereo not drawn)	inactive: -5.23%
CCCCOc1ccc(NP(C)(=O)Oc2ccc(CC)cc2)cc1 (stereo not drawn)	inactive: -6.03%
CP(=O)(Nc1ccccc1Br)Oc1ccccc1 (stereo not drawn)	inactive: -7.48%
Nc1nonc1N=Nc1nonc1N	inactive: 2.08%
CC(=O)N(CCN(C(C)=O)[N+](=O)[O-])[N+](=O)[O-]	inactive: -6.18%
Cc1ccc(Cl)cc1NP(C)(=O)Oc1ccccc1 (stereo not drawn)	inactive: -2.25%
CN([N+](=O)[O-])C(Br)([N+](=O)[O-])[N+](=O)[O-]	inactive: -1.59%
Cc1ccc(NP(C)(=O)Oc2ccc(Cl)cc2)cc1 (stereo not drawn)	inactive: -7.36%
CP(=O)(O)OC(c1ccccc1)C(F)(F)C(F)(F)F (stereo not drawn)	inactive: -8.24%
COc1ccc(OP(C)(=O)Nc2ccc(Br)cc2)cc1 (stereo not drawn)	inactive: -6.01%
CP(=O)(Oc1ccc(F)cc1)OC(c1ccccc1)C(F)(F)F (stereo not drawn)	inactive: -5.88%
CP(=O)(Nc1cccc(F)c1)Oc1ccc(Cl)cc1 (stereo not drawn)	inactive: -6.26%
Cn1cc([N+](=O)[O-])nc1[N+](=O)[O-]	inactive: -4.58%

Source: PubChem BioAssay AID1259399 (Fisher Drug Discovery Resource Center, 2018)
